This is a selection: effects in other tests are not listed, and their absence says nothing.

As usually defined, the Kd is the free concentration of one partner at which half of the binding sites on the other are occupied at equilibrium, for simple one-to-one binding.

The assay relates to μOR. The assay can be described thus: Radioligand competition binding vs 3H-diprenorphine at μOR. To be noted: read-out: Kd of radioligand; μOR containing Sf9 insect cell membranes. On the technique in general: Loss of bound radioactivity is the signal in a displacement assay; it reports binding, not function.

On to ^3H-diprenorphine, for which the Kd was found to be 0.4 nM.

These data come from patent US11484525B2 (priority 2015, dated 2022).
